# Measured values from PubChem BioAssay AID602393 (Broad Institute, 2012).
# The entries are a selection whose mix differs from that of the whole data set. The source made the active and inactive calls. Rule as the data show it: active = activation above about 40%; inconclusive = no clear call, values can overlap the other calls; inactive = below that.
# Test: raisers of Bmi1 knock-in reporter signal – mouse ES cells, Bmi1 luciferase knock-in, single point, esBAF inhibitor project, primary screen (AID 602393);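 also: 0% = median of the plate's neutral control wells and 100% = double that signal; a rise in the Bmi1 reporter signal indicates esBAF inhibition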
# Conditions: 24 h, at 12.5 µM, stronger effect = higher value, 100% = twice the neutral-well signal
row,Compound,reporter increase
1,COc1cc(OC)c(C(=O)NCC2(N(C)C)CCCCC2)cc1OC,inactive: 5.52%
2,CCC(c1nnnn1C(C)(C)C)N1CCC(n2c(=O)[nH]c3ccccc32)CC1 (centres undefined),inactive: 1.94%
3,O=C(NCC1(N2CCOCC2)CCCCC1)c1cc(F)c(F)cc1Cl,inactive: 2.96%
4,CCCCn1nnnc1C(c1ccnc2ccccc12)N1CCC(n2c(=O)[nH]c3ccccc32)CC1 (centres undefined),inactive: -2.28%
5,CCCCn1nnnc1C(c1ccccc1OC(F)(F)F)N1CCC(n2c(=O)[nH]c3ccccc32)CC1 (centres undefined),inactive: 6.8%
6,COc1ccc(CN(CCCl)CCCl)cc1Cl,inactive: -4.57%
7,CN(C)c1cccc(C(=O)NCC2(N3CCCCC3)CCCCC2)c1,inactive: 5.03%
8,COc1ccc(C(c2nnnn2C2CCCC2)N2CCC(n3c(=O)[nH]c4ccccc43)CC2)cc1 (centres undefined),inactive: -5.18%
9,Cc1ccc(C(=O)NCC2(N(C)C)CCCCC2)o1,inactive: -1.64%
10,CCCOc1ccc(C(=O)NCC2(N(C)C)CCCCC2)cc1OC,inactive: -0.983%
11,O=C(NCC1(N2CCCCC2)CCCCC1)c1cncc(Br)c1,inactive: -2.92%
12,CCN1CCC(Nc2ccc(Cl)cc2)CC1,inactive: -8.43%
13,O=c1[nH]c2ccccc2n1C1CCN(C(c2ccccc2OC(F)(F)F)c2nnnn2C2CCCC2)CC1 (centres undefined),inactive: -8.58%
14,N#CC1(Nc2ccccc2)CCN(CCc2ccccc2)CC1,inactive: -6.02%
15,CC(C)(C)n1nnnc1C(c1ccccc1OC(F)(F)F)N1CCC(n2c(=O)[nH]c3ccccc32)CC1 (centres undefined),inactive: -2.53%
16,O=C(NCC1(N2CCCCC2)CCCCC1)c1ccc(OC(F)F)cc1,inactive: -7.03%
17,O=C(NCC1(N2CCOCC2)CCCCC1)c1cc(=O)[nH]c2ccccc12,inactive: -4.56%
18,COc1cc(C(=O)NCC2(N3CCCCC3)CCCCC2)ccc1OC(F)F,inactive: -1.73%
19,CC(C)c1ccc(C(=O)NCC2(N3CCOCC3)CCCCC2)cc1,inactive: 10.7%
20,CCCCn1nnnc1C(c1cccc2ccccc12)N1CCC(n2c(=O)[nH]c3ccccc32)CC1 (centres undefined),inactive: 1.65%
21,O=C(NCC1(N2CCCCC2)CCCCC1)c1cccc(C(F)(F)F)c1,inactive: -4.96%
22,O=P1(N(CCCl)CCCl)SCCCS1,inactive: -1.24%
23,CCCCn1nnnc1C(c1cc2ccccc2o1)N1CCC(n2c(=O)[nH]c3ccccc32)CC1 (centres undefined),inactive: -0.107%

row,Compound,reporter increase
1,O=C(NCC1(N2CCCCC2)CCCCC1)c1ccc(F)cc1,inactive: -0.297%
2,CCOC(=O)N1CCC(Nc2ccc(F)cc2)CC1,inactive: -10.3%
3,COc1ccc(NC2CCN(CCc3ccccc3)CC2)c(OC)c1,inactive: -6.58%
4,CC(C)(C)n1nnnc1C(c1ccccc1)N1CCC(n2c(=O)[nH]c3ccccc32)CC1 (centres undefined),inactive: -3.47%
5,O=C1CCN(Cc2ccccc2)CC1,inactive: 17.2%
6,CCOC(=O)N1CCC(Nc2cccc(C)c2)CC1,inactive: 10.5%
7,COc1cc(C(=O)NCC2(N(C)C)CCCCC2)ccc1OC(F)F,inactive: 2.53%
8,O=c1[nH]c2ccccc2n1C1CCN(C(c2cccc3ccccc23)c2nnnn2C2CCCC2)CC1 (centres undefined),inactive: -1.99%
9,O=c1[nH]c2ccccc2n1C1CCN(C(c2ccccc2)c2nnnn2C2CCCCC2)CC1 (centres undefined),inactive: -0.222%
10,CSc1ccccc1C(=O)NCC1(N2CCCCC2)CCCCC1,inactive: 0.133%
11,Cc1cccc(NC2(C#N)CCN(Cc3ccccc3)CC2)c1,inactive: 1.7%
12,COc1ccc(C(=O)NCC2(N3CCCCC3)CCCCC2)cc1,inactive: -3.06%
13,CC(C)(C)OC(=O)N1CCC(N(C(=O)c2ccccc2)c2ccc(F)cc2)CC1,inactive: -6.72%
14,CCC(c1nnnn1C1CCCC1)N1CCC(n2c(=O)[nH]c3ccccc32)CC1 (centres undefined),inactive: -7.32%
15,O=C(NCC1(N2CCCCC2)CCCCC1)c1ccc(=O)[nH]c1,inactive: -9.07%
16,CCCCn1nnnc1C(CC)N1CCC(n2c(=O)[nH]c3ccccc32)CC1 (centres undefined),inactive: -8.64%
17,O=C(NCC1(N2CCCCC2)CCCCC1)c1cccs1,inactive: -4.41%
18,CCCCn1nnnc1C(c1cccs1)N1CCC(n2c(=O)[nH]c3ccccc32)CC1 (centres undefined),inactive: -1.19%
19,O=C(NCC1(N2CCCCC2)CCCCC1)c1ccc(Cl)s1,inactive: -4.28%
20,O=c1[nH]c2ccccc2n1C1CCN(C(c2cc3ccccc3o2)c2nnnn2C2CCCCC2)CC1 (centres undefined),inactive: 2.92%
21,O=C(OC1CN2CCC1CC2)C1c2ccccc2Oc2ccccc21 (centres undefined),inactive: -0.397%
22,COc1ccc(Cl)cc1C(=O)NCC1(N2CCOCC2)CCCCC1,inactive: -1.92%
23,CCOC(=O)N1CCC(Nc2ccc(OC)cc2)CC1,inactive: -7.26%

row,Compound,reporter increase
1,CCCCn1nnnc1C(c1ccc(OC)cc1)N1CCC(n2c(=O)[nH]c3ccccc32)CC1 (centres undefined),inactive: 1.04%
2,O=C(NCC1(N2CCCCC2)CCCCC1)c1ccc(Cl)nc1,inactive: 0.629%
3,O=c1[nH]c2ccccc2n1C1CCN(C(c2ccccc2OC(F)(F)F)c2nnnn2C2CCCCC2)CC1 (centres undefined),inactive: 6.32%
4,Cc1cc(C)cc(N(C(=O)c2ccccc2)C2CCN(C(=O)OC(C)(C)C)CC2)c1,inactive: 6.5%
5,O=C(O)C1(Nc2ccccc2)CCN(Cc2ccccc2)CC1,inactive: -2.96%
6,O=c1[nH]c2ccccc2n1C1CCN(C(c2cc3ccccc3o2)c2nnnn2C2CCCC2)CC1 (centres undefined),inactive: 14.1%
7,CCCOc1ccc(C(=O)NCC2(N(C)C)CCCCC2)cc1,inactive: 4.23%
8,CCOc1ncccc1C(=O)NCC1(N2CCOCC2)CCCCC1,inactive: -6.79%
9,CN1CCC(Nc2ccc(F)c(Cl)c2)CC1,inactive: 3.13%
10,CN1CCC(Nc2ccc(Cl)cc2)CC1,inactive: 0.0305%
11,COc1cccc(C(=O)N(c2cc(C)cc(C)c2)C2CCN(C(=O)OC(C)(C)C)CC2)c1,inactive: 5.75%
12,COc1cccc(C(c2nnnn2C2CCCC2)N2CCC(n3c(=O)[nH]c4ccccc43)CC2)c1OC (centres undefined),inactive: -4.42%
13,COc1cc(OC)cc(C(=O)NCC2(N3CCOCC3)CCCCC2)c1,inactive: -6.28%
14,CCC(CO)(C(=O)OC1CN2CCC1CC2)c1ccccc1 (centres undefined),inactive: 5.85%
15,Cc1ccc(C(=O)NCC2(N3CCCCC3)CCCCC2)o1,inactive: -4.7%
16,Fc1ccccc1NC1CCN(Cc2ccccc2)CC1,inactive: -7.92%
17,Cc1ccc(NC2(C#N)CCN(Cc3ccccc3)CC2)cc1,inactive: -7.74%
18,COc1cccc(C(c2nnnn2C2CCCCC2)N2CCC(n3c(=O)[nH]c4ccccc43)CC2)c1OC (centres undefined),inactive: -3.34%
19,CC(=O)N(c1ccccc1)C1CCNCC1,inactive: 0.277%
20,CCC(c1nnnn1C1CCCCC1)N1CCC(n2c(=O)[nH]c3ccccc32)CC1 (centres undefined),inactive: -8.42%
21,COc1cc(OC)cc(C(=O)NCC2(N3CCCCC3)CCCCC2)c1,inactive: -3.73%
22,O=c1[nH]c2ccccc2n1C1CCN(C(c2ccnc3ccccc23)c2nnnn2C2CCCCC2)CC1 (centres undefined),inactive: -1.2%
23,O=C(NCC1(N2CCCCC2)CCCCC1)c1ccco1,inactive: 0.626%

row,Compound,reporter increase
1,Cn1c(=O)[nH]cc(N(CCCl)CCCl)c1=O,inactive: -11.6%
2,Cc1ccccc1NC1(C#N)CCN(Cc2ccccc2)CC1,inactive: 4.95%
3,COc1ccc(C(c2nnnn2C2CCCCC2)N2CCC(n3c(=O)[nH]c4ccccc43)CC2)cc1 (centres undefined),inactive: -1.69%
4,CC(C)(C)n1nnnc1C(c1ccnc2ccccc12)N1CCC(n2c(=O)[nH]c3ccccc32)CC1 (centres undefined),inactive: 3.26%
5,N#Cc1ccc(C(=O)NCC2(N3CCCCC3)CCCCC2)cc1,inactive: -4.53%
6,CC(C)(C)OC(=O)N1CCC(N(C(=O)c2ccccc2)c2ccc(Cl)cc2)CC1,inactive: -7.46%
7,CC(C)(C)n1nnnc1C(c1cccc2ccccc12)N1CCC(n2c(=O)[nH]c3ccccc32)CC1 (centres undefined),inactive: 1.06%
8,CN(C)C1(CNC(=O)c2cccc(C#N)c2)CCCCC1,inactive: -1.27%
9,CCCN1CCC(Nc2cc(OC)cc(OC)c2)CC1,inactive: 1.59%
10,O=c1[nH]c2ccccc2n1C1CCN(C(c2ccccc2)c2nnnn2C2CCCC2)CC1 (centres undefined),inactive: 1.16%
11,O=c1[nH]c2ccccc2n1C1CCN(C(c2cccs2)c2nnnn2C2CCCCC2)CC1 (centres undefined),inactive: 1.46%
12,O=c1[nH]c2ccccc2n1C1CCN(C(c2ccnc3ccccc23)c2nnnn2C2CCCC2)CC1 (centres undefined),inactive: -2.4%
13,CCCCn1nnnc1C(c1ccccc1)N1CCC(n2c(=O)[nH]c3ccccc32)CC1 (centres undefined),inactive: -6.7%
14,COc1cc(C(=O)NCC2(N3CCOCC3)CCCCC2)cc(OC)c1C,inactive: 7.88%
15,O=C(NCC1(N2CCOCC2)CCCCC1)c1cc(Br)ccc1Cl,inactive: 8.04%
16,O=c1[nH]c2ccccc2n1C1CCN(C(c2cccs2)c2nnnn2C2CCCC2)CC1 (centres undefined),inactive: -6.64%
17,CCCCn1nnnc1C(c1cccc(OC)c1OC)N1CCC(n2c(=O)[nH]c3ccccc32)CC1 (centres undefined),inactive: 1.12%
18,CCOC(=O)N1CCC(Nc2ccc(C)cc2)CC1,inactive: 7.17%
19,COc1cccc(C(c2nnnn2C(C)(C)C)N2CCC(n3c(=O)[nH]c4ccccc43)CC2)c1OC (centres undefined),inactive: -5.46%
20,N/C(=N\O)c1c(N)no[n+]1[O-],inactive: 4.02%
